{"sequences": {"note": "Chains of the proteins cited; added tags and fusions are not shown.", "UniProt P08588, whole entry": "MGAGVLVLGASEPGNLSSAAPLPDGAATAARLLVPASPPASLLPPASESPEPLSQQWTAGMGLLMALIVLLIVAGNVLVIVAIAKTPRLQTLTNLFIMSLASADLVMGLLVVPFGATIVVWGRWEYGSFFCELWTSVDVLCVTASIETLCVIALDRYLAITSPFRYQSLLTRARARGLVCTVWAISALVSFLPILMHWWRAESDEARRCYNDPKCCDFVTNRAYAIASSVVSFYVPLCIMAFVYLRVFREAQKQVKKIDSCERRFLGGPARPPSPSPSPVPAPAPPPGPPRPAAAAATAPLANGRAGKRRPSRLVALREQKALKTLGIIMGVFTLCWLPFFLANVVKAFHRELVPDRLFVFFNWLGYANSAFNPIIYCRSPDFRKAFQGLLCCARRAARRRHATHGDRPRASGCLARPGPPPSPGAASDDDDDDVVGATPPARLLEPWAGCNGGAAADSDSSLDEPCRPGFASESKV"}, "source": "patent US20080033027A1", "about": "“Drug combination pharmaceutical compositions and methods for using them” (VICUS THERAPEUTICS SPE 1, LLC, priority 2005, published 2008)", "origin": "cited, not measured here", "key": {"[1]": {"target": "beta 1 receptor subtypes (Homo sapiens, UniProt P08588)", "conditions": "higher than propranolol"}}, "data": [{"smiles": "CC(C)NCC(O)COc1ccc(CC(N)=O)cc1", "note": "(stereo not shown) [Atenolol]", "values": [{"measurement": "Biotransformation", "setting": "in vivo", "value": "Hepatic"}, {"measurement": "Removable by Hemodialysis", "setting": "in vivo", "value": "Yes"}, {"measurement": "route of elimination", "setting": "stated in the text", "value": "eliminated primarily by the kidneys through the urine"}, {"measurement": "relative activity against beta 1 receptor subtypes as compared to a nonselective beta blocker such as propranolol", "setting": "[1]", "value": "approximately 16 fold"}]}]}
